{"source": "patent US20020131994A1", "about": "“Non-irritating formulation for the transdermal delivery of substances” (priority 2001, published 2002)", "origin": "cited, not measured here"}
{"substance": "insulin", "values": [{"measurement": "Standard clearance time for insulin I.V.", "value": "< 20", "unit": "min"}]}
